What was measured:
[1] = tested on: collagen I; experiment: expression of collagen I increased by TGF-β1 in hepatocytes AML12; format: cell-based, mouse; details: AML12 cells; 5 nM colchicine + 30 μg/ml DPP-4 inhibitor, TGF-β1 (5 ng/ml)
Method: (§1) Mouse hepatocytes, AML12 cells, were incubated at 37° C., 95% air and 5% CO2 in a DMEM/F12 medium containing 5 μg/ml insulin, 5 μg/ml transferrin, 5 ng/ml selenium, 40 ng/ml dexamethasone, 10% fetal bovine serum (FBS) and 1% penicillin/streptomycin. AML12 cells pre-treated with 5 nM of colchicine and 30 μg/ml of a dipeptidyl peptidase-4 (DPP-4) inhibitor were treated with TGF-β1 (5 ng/ml) or 0.2 mM of palmitate after 8 hours, and further incubated for additional 16 hours.
(§2) Total RNA was extracted using an RNeasy mini kit (Qiagen), and then synthesized into cDNA using a high-capacity cDNA reverse transcription kit (Thermo Fisher). The same amount of cDNA was amplified using a SYBR™ green PCR master mix and a 10 pM primer set for each gene. The amplification process was subjected to an initial denaturation process at 95° C. for 5 minutes, and repetitively replication at 95° C. for 10 seconds, 58.5° C. for 10 seconds, and 72° C. for 10 seconds for a total of 40 times.

[2] = tested on: SREBP1; experiment: expression of SREBP1 induced by palmitate in hepatocytes AML12; format: cell-based, mouse; details: AML12 cells; 5 nM colchicine + 30 μg/ml DPP-4 inhibitor, 0.2 mM palmitate
Method: as §1, §2

Cn1c(=O)cc(N2CCC[C@@H](N)C2)n(Cc2ccccc2C#N)c1=O [alogliptin]
additive interaction with colchicine in inhibiting the expression of collagen I [1]: excluding | additive interaction with colchicine in inhibiting the expression of SREBP1 [2]: excluding
